From patent US11186582B2, “Substituted [1,2,4]triazolo[1,5-a]pyrimidin-7-yl compounds as PDE2 inhibitors” (DART NEUROSCIENCE (CAYMAN) LTD., priority 2014, dated 2021)

Protein sequences, listed by entry. Tags and fused reporters are not part of them. Residues count along the entry.
UniProt O00408, 2-941: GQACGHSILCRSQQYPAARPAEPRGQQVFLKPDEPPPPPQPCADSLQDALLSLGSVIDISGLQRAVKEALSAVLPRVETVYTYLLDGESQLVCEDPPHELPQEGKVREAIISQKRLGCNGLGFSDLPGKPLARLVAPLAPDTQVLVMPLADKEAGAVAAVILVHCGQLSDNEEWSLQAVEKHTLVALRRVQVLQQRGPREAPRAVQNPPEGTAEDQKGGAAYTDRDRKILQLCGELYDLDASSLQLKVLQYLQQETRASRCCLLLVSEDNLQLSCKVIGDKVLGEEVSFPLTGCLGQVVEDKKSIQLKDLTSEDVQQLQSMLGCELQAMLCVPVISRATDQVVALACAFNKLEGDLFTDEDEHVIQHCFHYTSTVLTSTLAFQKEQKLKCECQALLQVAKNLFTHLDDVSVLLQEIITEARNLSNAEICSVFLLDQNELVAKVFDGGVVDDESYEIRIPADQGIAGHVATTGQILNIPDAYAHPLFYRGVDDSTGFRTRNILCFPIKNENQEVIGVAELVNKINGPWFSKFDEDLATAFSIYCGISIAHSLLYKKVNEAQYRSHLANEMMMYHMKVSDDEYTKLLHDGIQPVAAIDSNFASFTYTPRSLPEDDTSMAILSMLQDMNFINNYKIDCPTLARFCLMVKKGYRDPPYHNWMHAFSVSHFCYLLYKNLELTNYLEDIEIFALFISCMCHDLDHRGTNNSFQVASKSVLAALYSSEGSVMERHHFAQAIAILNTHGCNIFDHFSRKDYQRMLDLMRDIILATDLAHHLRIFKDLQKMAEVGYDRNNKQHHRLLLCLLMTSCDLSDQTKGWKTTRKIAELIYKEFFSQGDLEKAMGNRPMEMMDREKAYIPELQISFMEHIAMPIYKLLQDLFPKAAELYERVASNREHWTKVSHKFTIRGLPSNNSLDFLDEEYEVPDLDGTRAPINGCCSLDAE

Each molecule was assayed against FLAG-tagged PDE2A1 (amino acids 2-941) (Homo sapiens (Human), UniProt O00408) (assay: IMAP TR-FRET PDE2A phosphodiesterase enzymatic assay). Conditions: not given.
For `Cc1cc([C@@H]2CCCN(Cc3ccc4ccccc4c3)C2)n2ncnc2n1` (single isomer, unassigned) [Example 2], the IC50 was 100 to 1000 nM.
`Cc1cc([C@H]2CCCN(Cc3ccc4ccccc4c3)C2)n2ncnc2n1` (single isomer, unassigned) [Example 3] was tested, and the IC50 was 100 to 1000 nM.
`Cc1cc(C2CCCN(C(=O)c3ccnc4ccccc34)C2)n2ncnc2n1` (stereo not drawn) [Example 7, (3-(5-Methyl-[1,2,4]triazolo[1,5-a]pyrimidin-7-yl)piperidin-1-yl)(quinolin-4-yl)methanone] gave an IC50 of 100 to 1000 nM.
With `Cc1cc(C2CN(C(=O)c3ccc4ccccc4n3)CCO2)n2ncnc2n1` (stereo not drawn) [Example 8, (2-(5-Methyl-[1,2,4]triazolo[1,5-a]pyrimidin-7-yl)morpholino)(quinolin-2-yl)methanone] the IC50 was 100 to 1000 nM.
Molecule `Cc1cc([C@@H]2CCCN(C(=O)[C@H]3COc4ccccc4C3)C2)n2ncnc2n1` [Example 10, (3R)-1-[(3R)-3,4-Dihydro-2H-1-benzopyran-3-carbonyl]-3-{5-methyl-[1,2,4]triazolo[1,5-a]pyrimidin-7-yl}piperidine] has an IC50 of 1000 to 10000 nM.
`Cc1cc(C2CCCN(Cc3cccc(Br)c3)C2)n2ncnc2n1` (stereo not drawn) [Example 11, 7-(1-(3-Bromobenzyl)piperidin-3-yl)-5-methyl-[1,2,4]triazolo[1,5-a]pyrimidine] gave an IC50 of 1000 to 10000 nM.
Molecule `Cc1cc(C2CCCN(Cc3c(F)cc(-c4ccc(Cl)cc4)cc3F)C2)n2ncnc2n1` (stereo not drawn) [Example 12, 7-(1-((4′-Chloro-3,5-difluoro-[1,1′-biphenyl]-4-yl)methyl)piperidin-3-yl)-5-methyl-[1,2,4]triazolo[1,5-a]pyrimidine] has an IC50 of 100 to 1000 nM.
`Cc1cc(C2CCCN(Cc3ccc(-c4ccccc4)cc3)C2)n2ncnc2n1` (stereo not drawn) [Example 13, 7-(1-([1,1′-Biphenyl]-4-ylmethyl)piperidin-3-yl)-5-methyl-[1,2,4]triazolo[1,5-a]pyrimidine] gave an IC50 of 100 to 1000 nM.
With `Cc1cc(C2CCCN(Cc3c(F)cc(-c4cccc(Cl)c4)cc3F)C2)n2ncnc2n1` (stereo not drawn) [Example 14, 1-{[4-(3-Chlorophenyl)-2,6-difluorophenyl]methyl}-3-{5-methyl-[1,2,4]triazolo[1,5-a]pyrimidin-7-yl}piperidine] the IC50 was 100 to 1000 nM.
Work on `Cc1cc(C2CCCN(Cc3c(F)cc(-c4ccccc4Cl)cc3F)C2)n2ncnc2n1` (stereo not drawn) [Example 15] yielded an IC50 of 100 to 1000 nM.
Molecule `Cc1cc(C2CCCN(Cc3ccc(-c4ccc(Cl)cc4)cc3)C2)n2ncnc2n1` (stereo not drawn) [Example 16, 1-{[4-(4-Chlorophenyl)phenyl]methyl}-3-{5-methyl-[1,2,4]triazolo[1,5-a]pyrimidin-7-yl}piperidine] has an IC50 of 100 to 1000 nM.
With `Cc1cc(C2CCCN(Cc3ccc(-c4cccc(Cl)c4)cc3)C2)n2ncnc2n1` (stereo not drawn) [Example 17, 1-{[4-(3-Chlorophenyl)phenyl]methyl}-3-{5-methyl-[1,2,4]triazolo[1,5-a]pyrimidin-7-yl}piperidine] the IC50 was 100 to 1000 nM.
Molecule `Cc1cc(C2CCCN(Cc3ccc(-c4ccccc4Cl)cc3)C2)n2ncnc2n1` (stereo not drawn) [Example 18, 1-{[4-(2-Chlorophenyl)phenyl]methyl}-3-{5-methyl-[1,2,4]triazolo[1,5-a]pyrimidin-7-yl}piperidine] has an IC50 of 100 to 1000 nM.
For `Cc1cc(C2CCCN(Cc3ccc(-c4ccc(F)cc4Cl)cc3)C2)n2ncnc2n1` (stereo not drawn) [Example 19, 1-{[4-(2-Chloro-4-fluorophenyl)phenyl]methyl}-3-{5-methyl-[1,2,4]triazolo[1,5-a]pyrimidin-7-yl}piperidine], the IC50 was 1000 to 10000 nM.
`Cc1cc(C2CCCN(Cc3ccc(-c4ccc(Cl)cc4)cc3F)C2)n2ncnc2n1` (stereo not drawn) [Example 20, 1-{[4-(4-Chlorophenyl)-2-fluorophenyl]methyl}-3-{5-methyl-[1,2,4]triazolo[1,5-a]pyrimidin-7-yl}piperidine] gave an IC50 of 100 to 1000 nM.
`Cc1cc(C2CCCN(Cc3ccc(-c4cccc(Cl)c4)cc3F)C2)n2ncnc2n1` (stereo not drawn) [Example 21, 1-{[4-(3-Chlorophenyl)-2-fluorophenyl]methyl}-3-{5-methyl-[1,2,4]triazolo[1,5-a]pyrimidin-7-yl}piperidine] gave an IC50 of 100 to 1000 nM.
Molecule `Cc1cc(C2CCCN(Cc3ccc(-c4ccccc4Cl)cc3F)C2)n2ncnc2n1` (stereo not drawn) [Example 22, 1-{[4-(2-Chlorophenyl)-2-fluorophenyl]methyl}-3-{5-methyl-[1,2,4]triazolo[1,5-a]pyrimidin-7-yl}piperidine] has an IC50 of 1000 to 10000 nM.
`Cc1cc(C2CCCN(Cc3ccc(-c4ccncc4)cc3F)C2)n2ncnc2n1` (stereo not drawn) [Example 23, 4-{3-Fluoro-4-[(3-{5-methyl-[1,2,4]triazolo[1,5-a]pyrimidin-7-yl}piperidin-1-yl)methyl]phenyl}pyridine] was tested, and the IC50 was 100 to 1000 nM.
`Cc1cc(C2CCCN(Cc3cc(-c4ccccc4Cl)ccc3F)C2)n2ncnc2n1` (stereo not drawn) [Example 24, 1-{[5-(2-Chlorophenyl)-2-fluorophenyl]methyl}-3-{5-methyl-[1,2,4]triazolo[1,5-a]pyrimidin-7-yl}piperidine] gave an IC50 of 1000 to 10000 nM.
In the case of `Cc1cc(C2CCCN(Cc3cc(-c4ccc(F)cc4Cl)ccc3F)C2)n2ncnc2n1` (stereo not drawn) [Example 25, 1-{[5-(2-Chloro-4-fluorophenyl)-2-fluorophenyl]methyl}-3-{5-methyl-[1,2,4]triazolo[1,5-a]pyrimidin-7-yl}piperidine], the IC50 is reported as 1000 to 10000 nM.
Work on `Cc1cc(C2CCCN(Cc3cc(-c4cccnc4)ccc3F)C2)n2ncnc2n1` (stereo not drawn) [Example 26, 3-{4-Fluoro-3-[(3-{5-methyl-[1,2,4]triazolo[1,5-a]pyrimidin-7-yl}piperidin-1-yl)methyl]phenyl}pyridine] yielded an IC50 of 1000 to 10000 nM.
`Cc1cc(C2CCCN(Cc3cc(-c4ccncc4)ccc3F)C2)n2ncnc2n1` (stereo not drawn) [Example 27, 4-{4-Fluoro-3-[(3-{5-methyl-[1,2,4]triazolo[1,5-a]pyrimidin-7-yl}piperidin-1-yl)methyl]phenyl}pyridine] showed an IC50 of 1000 to 10000 nM.
In the case of `Cc1cc(C2CCCN(Cc3cccc(-c4ccc(Cl)cc4)c3)C2)n2ncnc2n1` (stereo not drawn) [Example 28, 1-{[3-(4-Chlorophenyl)phenyl]methyl}-3-{5-methyl-[1,2,4]triazolo[1,5-a]pyrimidin-7-yl}piperidine], the IC50 is reported as 1000 to 10000 nM.
In the case of `Cc1cc(C2CCCN(Cc3cccc(-c4cccc(Cl)c4)c3)C2)n2ncnc2n1` (stereo not drawn) [Example 29, 1-{[3-(3-Chlorophenyl)phenyl]methyl}-3-{5-methyl-[1,2,4]triazolo[1,5-a]pyrimidin-7-yl}piperidine], the IC50 is reported as 100 to 1000 nM.
In the case of `Cc1cc(C2CCCN(Cc3cccc(-c4ccccc4Cl)c3)C2)n2ncnc2n1` (stereo not drawn) [Example 30, 1-{[3-(2-Chlorophenyl)phenyl]methyl}-3-{5-methyl-[1,2,4]triazolo[1,5-a]pyrimidin-7-yl}piperidine], the IC50 is reported as 1000 to 10000 nM.
In the case of `Cc1cc(C2CCCN(Cc3ccc(-c4ccncc4)cc3)C2)n2ncnc2n1` (stereo not drawn) [Example 31, 4-{4-[(3-{5-Methyl-[1,2,4]triazolo[1,5-a]pyrimidin-7-yl}piperidin-1-yl)methyl]phenyl}pyridine], the IC50 is reported as 100 to 1000 nM.
`Cc1cc(C2CCCN(Cc3ccc(-c4ccc(F)cc4Cl)cc3F)C2)n2ncnc2n1` (stereo not drawn) [Example 32, 1-{[4-(2-Chloro-4-fluorophenyl)-2-fluorophenyl]methyl}-3-{5-methyl-[1,2,4]triazolo[1,5-a]pyrimidin-7-yl}piperidine] gave an IC50 of 1000 to 10000 nM.
With `Cc1cc(C2CCCN(Cc3cc(-c4ccc(Cl)cc4)ccc3F)C2)n2ncnc2n1` (stereo not drawn) [Example 33, 1-{[5-(4-Chlorophenyl)-2-fluorophenyl]methyl}-3-{5-methyl-[1,2,4]triazolo[1,5-a]pyrimidin-7-yl}piperidine] the IC50 was 1000 to 10000 nM.
With `Cc1cc(C2CCCN(Cc3cc(-c4cccc(Cl)c4)ccc3F)C2)n2ncnc2n1` (stereo not drawn) [Example 34, 1-{[5-(3-Chlorophenyl)-2-fluorophenyl]methyl}-3-{5-methyl-[1,2,4]triazolo[1,5-a]pyrimidin-7-yl}piperidine] the IC50 was 100 to 1000 nM.
Molecule `Cc1cc(C2CCCN(Cc3cccc(-c4ccc(F)cc4Cl)c3)C2)n2ncnc2n1` (stereo not drawn) [Example 35, 1-{[3-(2-Chloro-4-fluorophenyl)phenyl]methyl}-3-{5-methyl-[1,2,4]triazolo[1,5-a]pyrimidin-7-yl}piperidine] has an IC50 of 1000 to 10000 nM.
Work on `Cc1cc(C2CCCN(Cc3ccc(-c4cccnc4)cc3F)C2)n2ncnc2n1` (stereo not drawn) [Example 36, 3-{3-Fluoro-4-[(3-{5-methyl-[1,2,4]triazolo[1,5-a]pyrimidin-7-yl}piperidin-1-yl)methyl]phenyl}pyridine] yielded an IC50 of 100 to 1000 nM.
In the case of `Cc1cc(C2CCCN(Cc3c(F)cc(-c4cccnc4)cc3F)C2)n2ncnc2n1` (stereo not drawn) [Example 37, 7-(1-(2,6-Difluoro-4-(pyridin-3-yl)benzyl)piperidin-3-yl)-5-methyl-[1,2,4]triazolo[1,5-a]pyrimidine], the IC50 is reported as 1000 to 10000 nM.
Work on `Cc1cc(C2CCCN(Cc3cccc(-c4cccnc4)c3)C2)n2ncnc2n1` (stereo not drawn) [Example 38, 3-{3-[(3-{5-Methyl-[1,2,4]triazolo[1,5-a]pyrimidin-7-yl}piperidin-1-yl)methyl]phenyl}pyridine] yielded an IC50 of 100 to 1000 nM.
In the case of `Cc1cc(C2CCCN(Cc3cccc(-c4ccncc4)c3)C2)n2ncnc2n1` (stereo not drawn) [Example 39, 4-{3-[(3-{5-Methyl-[1,2,4]triazolo[1,5-a]pyrimidin-7-yl}piperidin-1-yl)methyl]phenyl}pyridine], the IC50 is reported as 1000 to 10000 nM.
With `COc1ccc(CN2CCCC(c3cc(C)nc4ncnn34)C2)cc1OC` (stereo not drawn) [Example 40, 1-[(3,4-Dimethoxyphenyl)methyl]-3-{5-methyl-[1,2,4]triazolo[1,5-a]pyrimidin-7-yl}piperidine] the IC50 was > 10000 nM.
Molecule `Cc1cc(C2CCCN(Cc3cccc4ccccc34)C2)n2ncnc2n1` (stereo not drawn) [Example 41, 3-{5-Methyl-[1,2,4]triazolo[1,5-a]pyrimidin-7-yl}-1-(naphthalen-1-ylmethyl)piperidine] has an IC50 of 100 to 1000 nM.
With `Cc1cc(C2CCCN(Cc3ccc(Cl)cc3C)C2)n2ncnc2n1` (stereo not drawn) [Example 42, 1-[(4-Chloro-2-methylphenyl)methyl]-3-{5-methyl-[1,2,4]triazolo[1,5-a]pyrimidin-7-yl}piperidine] the IC50 was > 10000 nM.

Same assay, conditions: IMAP TR-FRET, 200 nM FAM-cAMP substrate, 11-point half-log dose-response
For `Cc1cc(C2CCCN(Cc3ccc4ccccc4c3)C2)n2ncnc2n1` (racemic) [Example 1, 3-{5-Methyl-[1,2,4]triazolo[1,5-a]pyrimidin-7-yl}-1-(naphthalen-2-ylmethyl)piperidine], the “PDE2 (pIC50)” value was >7.
In the case of `COc1ccc(C(=O)N2CC(c3cc(C)nc4ncnn34)CC(F)(F)C2)cc1I` (stereo not drawn) [Example 9, (3,3-Difluoro-5-(5-methyl-[1,2,4]triazolo[1,5-a]pyrimidin-7-yl)piperidin-1-yl)(3-iodo-4-methoxyphenyl)methanone], the “PDE2 (pIC50)” value is reported as >7.
